Assays:
[1] = molecular target: human Bfl-1 (residues 1-151) (human) (UniProt Q16548); test: yeast surface display FACS against Bfl-1, Mcl-1, Bcl-xL, Bcl-w, Bcl-2
[2] = molecular target: human Mcl-1 (residues 172-327) (human) (UniProt Q07820); test: yeast surface display FACS

| Substance | fold selectivity for Bfl-1 over the other family members tested [1] | fold tighter binding than FS2 [2] |
| --- | --- | --- |
| dF2 (peptide; other documents disagree on this pair) | > 100 fold |  |
| dM9 (peptide; other documents disagree on this pair) |  | 100 fold |
| dM10 (peptide; other documents disagree on this pair) |  | 100 fold |
| dF1 (peptide; other documents disagree on this pair) | > 100 fold |  |
| dF5 (peptide; other documents disagree on this pair) | > 100 fold |  |
